Test results from ChEMBL document CHEMBL1158479, “Synthesis and preliminary in vitro biological evaluation of 4-[(4-hydroxyphenyl)sulfanyl]but-3-en-2-one, a 4-mercaptophenol derivative designed as a novel bifunctional antimelanoma agent” (J Med Chem, 2009).

How the values were obtained:
Conditions in all cases: Agaricus bisporus
[1] = substrate: Oc1ccc(SSc2ccc(O)cc2)cc1; experiment: (§1) Ratio of Kcat to Km of mushroom tyrosinase
Outline: (§2)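 Mushroom tyrosinase kinetics were run by measuring the initial rate of enzyme-catalyzed o-quinone formation over increasing substrate concentrations. Km and Vmax were derived from these rates, and kcat and kcat/Km were calculated from them.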

[2] = substrate: CC(=O)/C=C/Sc1ccc(O)cc1; experiment: as §1; outline: as §2
[3] = substrate: CC(=O)/C=C\Sc1ccc(O)cc1; experiment: as §1; outline: as §2
[4] = substrate: Oc1ccc(SSc2ccc(O)cc2)cc1; experiment: (§3) Activity of mushroom tyrosinase assessed as o-quinone formation; outline: as §2
[5] = substrate: CC(=O)/C=C/Sc1ccc(O)cc1; experiment: as §3; outline: as §2
[6] = substrate: CC(=O)/C=C\Sc1ccc(O)cc1; experiment: as §3; outline: as §2

B1: Tyrosinase (Agaricus bisporus), O42713 (protein)
chain: MSLIATVGPTGGVKNRLNIVDFVKNEKFFTLYVRSLELLQAKEQHDYSSFFQLAGIHGLPFTEWAKERPSMNLYKAGYCTHGQVLFPTWHRTYLSVLEQILQGAAIEVAKKFTSNQTDWVQAAQDLRQPYWDWGFELMPPDEVIKNEEVNITNYDGKKISVKNPILRYHFHPIDPSFKPYGDFATWRTTVRNPDRNRREDIPGLIKKMRLEEGQIREKTYNMLKFNDAWERFSNHGISDDQHANSLESVHDDIHVMVGYGKIEGHMDHPFFAAFDPIFWLHHTNVDRLLSLWKAINPDVWVTSGRNRDGTMGIAPNAQINSETPLEPFYQSGDKVWTSASLADTARLGYSYPDFDKLVGGTKELIRDAIDDLIDERYGSKPSSGARNTAFDLLADFKGITKEHKEDLKMYDWTIHVAFKKFELKESFSLLFYFASDGGDYDQENCFVGSINAFRGTAPETCANCQDNENLIQEGFIHLNHYLARDLESFEPQDVHKFLKEKGLSYKLYSRGDKPLTSLSVKIEGRPLHLPPGEHRPKYDHTQARVVFDDVAVHVIN
kcat/Km [1]: 32700 | kcat/Km [2]: 155000 | kcat/Km [3]: 96400 | Km [4]: 16.4 µM | kcat [4]: 1.52 s⁻¹ | Km [5]: 19.8 µM | kcat [5]: 3.07 s⁻¹ | Km [6]: 36.3 µM | kcat [6]: 3.49 s⁻¹
